In ChEMBL document CHEMBL4007405 (J Med Chem, 2017):

What follows are compounds tested against T1, Disintegrin and metalloproteinase domain-containing protein 17 (Homo sapiens, UniProt P78536) (assay: not given).
For CC[C@H](C)[C@@H]1NC(=O)[C@@H]2CSSC[C@H](NC(=O)[C@H](CCCNC(=N)N)NC(=O)[C@@H]3CSSC[C@H](NC1=O)C(=O)N[C@@H]([C@@H](C)O)C(=O)N[C@@H](CCCNC(=N)N)C(=O)NCC(=O)N[C@@H](Cc1ccccc1)C(=O)N3)C(=O)N[C@@H](CC(C)C)C(=O)N[C@H]1CSSC[C@H](NC(=O)[C@H](Cc3c[nH]c4ccccc34)NC(=O)CNC(=O)[C@H](CCCNC(=N)N)NC(=O)[C@H](CCCNC(=N)N)NC1=O)C(=O)N[C@@H](CCCNC(=N)N)C(=O)N2, the IC50 was 3.8 to 10 nM.

What follows are compounds tested against T1, Disintegrin and metalloproteinase domain-containing protein 17 (assay: Inhibition of recombinant human TACE extracellular domain (215 to 671 residues) assessed as inhibition of proteolytic activity preincubated for 30 mins prior to addition of Mca-Pro-Leu-Ala-Gln-Ala-Val-Dpa-Arg-Ser-Ser-Ser-Arg-NH2 as substrate measured every 2 mins for 3 hrs by fluorescence analysis).
For CC[C@H](C)[C@@H]1NC(=O)CNC(=O)[C@H](CCCNC(=N)N)NC(=O)[C@H](CCCNC(=N)N)NC(=O)[C@@H]2CSSC[C@H](NC1=O)C(=O)N[C@@H](CCCNC(=N)N)C(=O)N[C@H]1CSSC[C@H](NC(=O)[C@H](CCCNC(=N)N)NC(=O)[C@@H]3CSSC[C@H](NC(=O)[C@H]([C@@H](C)CC)NC1=O)C(=O)N[C@@H]([C@@H](C)O)C(=O)N[C@@H](CCCNC(=N)N)C(=O)NCC(=O)N[C@@H](Cc1ccccc1)C(=O)N3)C(=O)N[C@@H](CC(C)C)C(=O)N2, the IC50 was 3860 nM.
For CC[C@H](C)[C@@H]1NC(=O)[C@@H]2CSSC[C@H](NC(=O)[C@H](CCCNC(=N)N)NC(=O)[C@@H]3CSSC[C@H](NC1=O)C(=O)N[C@@H]([C@@H](C)O)C(=O)N[C@@H](CCCNC(=N)N)C(=O)NCC(=O)N[C@@H](Cc1ccccc1)C(=O)N3)C(=O)N[C@@H](Cc1c[nH]c3ccccc13)C(=O)N[C@H]1CSSC[C@H](NC(=O)[C@H](C(C)C)NC(=O)CNC(=O)[C@H](CCCNC(=N)N)NC(=O)[C@H](CCCNC(=N)N)NC1=O)C(=O)N[C@@H](CCCNC(=N)N)C(=O)N2, the IC50 was 950 nM.
CC[C@H](C)[C@@H]1NC(=O)[C@@H]2CSSC[C@H](NC(=O)[C@H](CCCNC(=N)N)NC(=O)[C@@H]3CSSC[C@H](NC1=O)C(=O)N[C@@H]([C@@H](C)O)C(=O)N[C@@H](CCCNC(=N)N)C(=O)NCC(=O)N[C@@H](Cc1ccccc1)C(=O)N3)C(=O)N[C@@H](CC(C)C)C(=O)N[C@H]1CSSC[C@H](NC(=O)[C@H](C(C)C)NC(=O)[C@H](CCCNC(=N)N)NC(=O)[C@H](CCCNC(=N)N)NC(=O)[C@H](CCCNC(=N)N)NC1=O)C(=O)N[C@@H](CCCNC(=N)N)C(=O)N2 showed an IC50 of 870 nM.
For CC[C@H](C)[C@@H]1NC(=O)[C@@H]2CSSC[C@H](NC(=O)[C@H](CCCNC(=N)N)NC(=O)[C@@H]3CSSC[C@H](NC1=O)C(=O)N[C@@H]([C@@H](C)O)C(=O)N[C@@H](CCCNC(=N)N)C(=O)NCC(=O)N[C@@H](Cc1ccccc1)C(=O)N3)C(=O)N[C@@H](CC(C)C)C(=O)N[C@H]1CSSC[C@H](NC(=O)[C@H](C(C)C)NC(=O)[C@H](CC(=O)O)NC(=O)[C@H](CCCNC(=N)N)NC(=O)[C@H](CCCNC(=N)N)NC1=O)C(=O)N[C@@H](CCCNC(=N)N)C(=O)N2, the IC50 was 1130 nM.
With CC[C@H](C)[C@@H]1NC(=O)[C@@H]2CSSC[C@H](NC(=O)[C@H](CCCNC(=N)N)NC(=O)[C@@H]3CSSC[C@H](NC1=O)C(=O)N[C@@H]([C@@H](C)O)C(=O)N[C@@H](CCCNC(=N)N)C(=O)NCC(=O)N[C@@H](Cc1ccccc1)C(=O)N3)C(=O)N[C@@H](CC(=O)O)C(=O)N[C@H]1CSSC[C@H](NC(=O)[C@H](C(C)C)NC(=O)CNC(=O)[C@H](CCCNC(=N)N)NC(=O)[C@H](CCCNC(=N)N)NC1=O)C(=O)N[C@@H](CCCNC(=N)N)C(=O)N2 the IC50 was 1140 nM.
For CC[C@H](C)[C@@H]1NC(=O)[C@@H]2CSSC[C@H](NC(=O)[C@H](CCCNC(=N)N)NC(=O)[C@@H]3CSSC[C@H](NC1=O)C(=O)N[C@@H]([C@@H](C)O)C(=O)N[C@@H](CCCNC(=N)N)C(=O)NCC(=O)N[C@@H](Cc1ccccc1)C(=O)N3)C(=O)N[C@@H](CC(C)C)C(=O)N[C@H]1CSSC[C@H](NC(=O)[C@H](Cc3c[nH]c4ccccc34)NC(=O)CNC(=O)[C@H](CCCNC(=N)N)NC(=O)[C@H](CCCNC(=N)N)NC1=O)C(=O)N[C@@H](CCCNC(=N)N)C(=O)N2, the IC50 was 175 nM.
